Assay results as given in US20030092613A1, “Alpha7 nicotinic receptor peptides as ligands for beta amyloid peptides” (priority 2000, published 2003).
Where two headings read alike, the source gives them in different places.

Key:
Biotin-huma7-5 = system: Biotin-huma7-5; parameters: species or system human; settings: read-out: IC50, 125I-α-BTX binding to Biotin-huma7-5
[1] = system: guinea pig hippocampal synaptosomes; assay: ACh release from guinea pig hippocampal synaptosomes (β-amyloid inhibition of K+-evoked release); type: cell-based; settings: for IC50: 3 h
Procedure: ACh release from guinea pig hippocampal synaptosomes: Synaptosomes (P2 fraction) were prepared from guinea pig hippocampus as described previously and re-suspended in a Krebs-Ringer solution containing 0.1 μM [methyl-^3H]choline chloride (NEN, Boston, Mass.) and incubated at 37° C. for 30 min. Unincorporated choline was removed by washing and the synaptosomes were resuspended in Krebs-Ringer solution to 10 mg/mL. ACh release from synaptosomes was measured using the parallel superfusion chambers (Hugo Sachs Elektronik, March-Hugstetten, Germany) according to that described earlier (Wang, H. -Y. et al Neuropeptides 1999; 33, 197-205). The synaptosomal suspension (250 μL) was placed in each of the superfision chambers between two circular pieces of GF/B filters (Whatman, England). The chambers were perfused with oxygenated Krebs-Ringer containing 1 μM physostigmine hemisulfate at a flow rate of 0.5 mL/min. The onset of superfusion was defined as time zero (to). Starting 30 min after t0, fractions of the effluent were collected 12 times at 10-minute intervals.
The tissues were treated with peptides and ACh release was evoked by superfusing with 65 mM K^+-Krebs-Ringer (made by equimolar replacement of NaCl with KCl) for 30 seconds. […] Twenty minutes prior to K^+ stimulation (S2, S3 or S4), tissues were superfused with Krebs-Ringer solution that contained various concentrations of compound or vehicle (control) for 30 min. After perfusion, 5 mL of Scintsafe PlusTM 50% (Fisher Scientific) was added to the synaptosomes (on filter) and aliquots of the superfusates (0.5 mL). The amount of ^3H in the superfusate samples was measured by liquid scintillation spectrometry.
Tritiurn efflux into the superfusate was calculated as the fraction of ^3H content in the synaptosomes at the onset of the respective collection period. To calculate the amount of ^3H present in the superfusate after K^+ stimulation, the estimated basal efflux (the average of the 10-minute fractions immediately before and after each stimulation) was subtracted from the total efflux during the 10-minute fraction which began with the 30-second second K^+ stimulus. This difference was then used to calculate the percent of K^+-evoked release of ACh.
Data are expressed as the mean fractional ^3H release±S.E.M. Statistical differences between treatments were tested by Student's t test, two-tailed or the two-factor ANOVA as appropriate. Individual differences in the dose-response curve were evaluated by the Newman-Keuls multiple comparison test.

[2] = 100 μM, attenuation of β-amyloid's inhibition on potassium-evoked ACh release

Structure (SMILES) | IC50 (Biotin-huma7-5) | ACh rel % Inh @ 100 μM [1] | IC50 [1] | ACh rel % Inh @ 100 μM [1, 2]
CC(=O)N[C@@H](CO)C(=O)N[C@@H](CCC(=O)O)C(=O)N[C@@H](CCCNC(=N)N)C(=O)N[C@@H](Cc1ccccc1)C(=O)N[C@@H](Cc1ccc(O)cc1)C(=O)N[C@@H](CCC(=O)O)C(=O)N[C@@H](CS)C(=O)N[C@@H](CS)C(=O)N[C@@H](CCCCN)C(=O)N[C@@H](C)C(=O)N1CCC[C@H]1C(N)=O [compound 3] | > 100 µM | 75% | 0.426 µM | 
CC(=O)N[C@@H](CO)C(=O)N[C@@H](CCC(=O)O)C(=O)N[C@@H](C)C(=O)N[C@@H](Cc1ccccc1)C(=O)N[C@@H](Cc1ccc(O)cc1)C(=O)N[C@@H](CCC(=O)O)C(=O)N[C@@H](CS)C(=O)N[C@@H](CS)C(=O)N[C@@H](CCCCN)C(=O)N[C@@H](CCC(=O)O)C(=O)N1CCC[C@H]1C(N)=O [compound 1] | 9.6 µM |  | 0.277 µM | 70%
CC(=O)N[C@@H](CO)C(=O)N[C@@H](CCC(=O)O)C(=O)N[C@@H](CCCNC(=N)N)C(=O)N[C@@H](C)C(=O)N[C@@H](Cc1ccc(O)cc1)C(=O)N[C@@H](CCC(=O)O)C(=O)N[C@@H](CS)C(=O)N[C@@H](CS)C(=O)N[C@@H](CCCCN)C(=O)N[C@@H](CCC(=O)O)C(=O)N1CCC[C@H]1C(N)=O [compound 12] | > 100 µM |  | > 10 µM | 14%
CC(=O)N[C@@H](CO)C(=O)N[C@@H](CCC(=O)O)C(=O)N[C@@H](CCCNC(=N)N)C(=O)N[C@@H](Cc1ccccc1)C(=O)N[C@@H](C)C(=O)N[C@@H](CCC(=O)O)C(=O)N[C@@H](CS)C(=O)N[C@@H](CS)C(=O)N[C@@H](CCCCN)C(=O)N[C@@H](CCC(=O)O)C(=O)N1CCC[C@H]1C(N)=O [compound 13] | > 100 µM |  | > 10 µM | 18%
CC(=O)N[C@@H](CO)C(=O)N[C@@H](CCC(=O)O)C(=O)N[C@@H](CCCNC(=N)N)C(=O)N[C@@H](Cc1ccccc1)C(=O)N[C@@H](Cc1ccc(O)cc1)C(=O)N[C@@H](CCC(=O)O)C(=O)N[C@@H](CS)C(=O)N[C@@H](CS)C(=O)N[C@@H](CCCCN)C(=O)N[C@@H](CCC(=O)O)C(=O)N[C@@H](C)C(N)=O [compound 17] | > 100 µM |  | < 10 µM | 59%
CC(=O)N[C@@H](CO)C(=O)N[C@@H](C)C(=O)N[C@@H](CCCNC(=N)N)C(=O)N[C@@H](Cc1ccccc1)C(=O)N[C@@H](Cc1ccc(O)cc1)C(=O)N[C@@H](CCC(=O)O)C(=O)N[C@@H](CS)C(=O)N[C@@H](CS)C(=O)N[C@@H](CCCCN)C(=O)N[C@@H](CCC(=O)O)C(=O)N1CCC[C@H]1C(N)=O [compound 11] | 8.4 µM | 13% | > 10 µM | 
CC(=O)N[C@@H](CO)C(=O)N[C@@H](CCC(=O)O)C(=O)N[C@@H](CCCNC(=N)N)C(=O)N[C@@H](Cc1ccccc1)C(=O)N[C@@H](Cc1ccc(O)cc1)C(=O)N[C@@H](CCC(=O)O)C(=O)N[C@@H](CS)C(=O)N[C@@H](CS)C(=O)N[C@@H](CCCCN)C(=O)N[C@@H](CCC(=O)O)C(=O)N1CCC[C@H]1C(N)=O [compound 7] | 19 µM |  | 0.125 µM | 89%
